{
  "source": "paper PMC7956155",
  "about": "“Design and Evaluation of Peptide Dual-Agonists of GLP-1 and NPY2 Receptors for Glucoregulation and Weight Loss with Mitigated Nausea and Emesis” (Journal of Medicinal Chemistry, 2021)",
  "assay": "Pooled rat liver microsomal stability assay",
  "format": "in vitro ADME",
  "conditions": "pooled male Sprague–Dawley rat liver microsomes 1 mg/mL, 30 μM peptide, 1 mM NADPH, 3 mM MgCl2/25 mM KH2PO4 pH 7.4, 37 °C, HPLC UV 206 nm, n = 3 independent assays",
  "data": [
    {"smiles": "CC[C@H](C)[C@H](NC(=O)[C@H](Cc1ccccc1)NC(=O)[C@H](CCC(=O)O)NC(=O)[C@H](CCCNC(=N)N)NC(=O)[C@@H](NC(=O)[C@H](C)NC(=O)[C@H](CCC(=O)O)NC(=O)[C@H](CCC(=O)O)NC(=O)[C@H](CCC(=O)O)NC(=O)[C@H](CC(C)C)NC(=O)[C@H](Cc1ccc(O)cc1)NC(=O)[C@H](CCCCN=[N+]=[N-])NC(=O)[C@H](CO)NC(=O)[C@H](CC(C)C)NC(=O)[C@H](CC(=O)O)NC(=O)[C@H](CO)NC(=O)[C@@H](NC(=O)[C@H](Cc1ccccc1)NC(=O)[C@@H](NC(=O)CNC(=O)[C@H](CCC(N)=O)NC(=O)[C@@H](CO)NC(=O)[C@@H](N)Cc1c[nH]cn1)[C@@H](C)O)[C@@H](C)O)C(C)C)C(=O)N[C@@H](C)C(=O)N[C@@H](Cc1c[nH]c2ccccc12)C(=O)N[C@@H](CC(C)C)C(=O)N[C@@H](CCCCN)C(=O)N[C@@H](CC(N)=O)C(=O)NCC(=O)NCC(=O)N1CCC[C@H]1C(=O)N[C@@H](CO)C(=O)N[C@@H](CCCNC(=N)N)C(=O)N[C@@H](Cc1c[nH]cn1)C(=O)N[C@@H](Cc1ccc(O)cc1)C(=O)N[C@@H](CC(C)C)C(=O)N[C@@H](CC(N)=O)C(=O)N[C@@H](CC(C)C)C(=O)N[C@H](C(=O)N[C@H](C(=O)N[C@@H](CCCNC(=N)N)C(=O)N[C@@H](CCC(N)=O)C(=O)N[C@@H](CCCNC(=N)N)C(=O)N[C@@H](Cc1ccc(O)cc1)C(N)=O)[C@@H](C)O)C(C)C", "note": "[GEP44]", "values": [
      {"measurement": "half-life at 30 μM", "setting": "over 120 min, read-out: t1/2 in rat liver microsomes", "result": 2.27, "unit": "h"},
      {"measurement": "slope (microsomal elimination fit)", "setting": "sampled every 20 min over 120 min", "result": "–0.005087"}
    ]}
  ]
}
